Reference: PubChem BioAssay AID1700 (The Scripps Research Institute Molecular Screening Center, 2009)
Values joined by “and” are separate entries in the source; they are usually repeats but may differ in a detail not shown here. Equal values may be shown once. The entries are a selection whose mix differs from that of the whole data set. Active and inactive are the calls of the source.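 Rule for the calls: active = inhibition above a per-plate limit of that plate's mean compound inhibition plus 3 SD (cut at about 60% in these data); inactive = the rest.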

Test: KLF5 expression inhibitors, primary screen, DLD-1 cells, luminescence (AID 1700);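 note: 0% = DMSO wells and 100% = LY294002 at 200 µM; higher means less KLF5 promoter-driven luciferase light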
Conditions: DLD-1 KLF5 promoter-luciferase reporter, at 5 µM, stronger effect = higher value

Structure (SMILES)	inhibition
O=[N+]([O-])c1ncn(CCn2ncnc2[N+](=O)[O-])n1	inactive: -10.7%
CC(C)(C)C(=O)NC(Sc1ccncn1)C(Cl)(Cl)Cl (centres undefined)	inactive: -0.93%
O=C(O)CNc1ccc([As](=O)(O)O)cc1	inactive: -7.72%
O=[N+]([O-])c1cccc(NC2=NCC(CBr)S2)c1 (centres undefined)	inactive: -4.98%
O=C(Nc1cc([As](=O)(O)O)ccc1O)c1ccccc1	inactive: -21.6%
CCN(/C(=N/P(=O)(N1CCOCC1)N1CCOCC1)N1CCOCC1)c1ccc(OC)cc1	inactive: 12.2%
C[N+]1=C2C=CC=CC=C2SC12C([N+](=O)[O-])=CC([N+](=O)[O-])=C[C-]2[N+](=O)[O-] (centres undefined)	inactive: 27.4%
Nc1ccc([As](=O)(O)c2ccc(N)cc2)cc1	inactive: -2.76%
CC1CCN(C(=O)Oc2c(Cl)cc(Cl)c3cccnc23)CC1	inactive: -20.2%
CN(C)C(=O)OCCc1n(C)cc[n+]1C	inactive: -11%
CC(C)=N/N=C(\N)N[N+](=O)[O-]	inactive: -19.9%
COc1ccc(C2=NCC(CBr)S2)cc1 (centres undefined)	inactive: -17.2%
O=[N+]([O-])c1cc([N+](=O)[O-])c(CCNc2ccccc2)c([N+](=O)[O-])c1	inactive: -25.6%
CCc1nc2c(n1)c1c(non1O)c1c2no[n+]1[O-]	inactive: 3.42%
Cc1ccc(NP(=O)(Oc2ccccc2)Oc2ccccc2)nc1	inactive: 6.55%
CC(=O)N1C2C3N(C(C)=O)C1C1N(C(C)=O)C(C(N1C(C)=O)N3C(C)=O)N2C(C)=O	inactive: -13.9%
O=[N+]([O-])c1cccc2n[nH]nc12	inactive: -24.5%
O=C(NC(Sc1ccncn1)C(Cl)(Cl)Cl)c1ccccc1 (centres undefined)	inactive: 18.2%
Cc1c2non([O-])c-2c(C)[n+](=O)[n+]1[O-]	inactive: -15.3%
Oc1ccccc1CNc1ccccn1	inactive: -12%
Nc1cc(N)c2nonc2c1[N+](=O)[O-]	inactive: -25.8%
CC(C)CC(=O)NC(Sc1ccc(Cl)cc1)C(Cl)(Cl)Cl (centres undefined)	inactive: -9.96%

Structure (SMILES)	inhibition
Cc1ccc(N/C(=N/P(=O)(N2CCOCC2)N2CCOCC2)N2CCOCC2)cc1	inactive: -0.58%
NC(=O)c1cc([N+](=O)[O-])cc([N+](=O)[O-])c1N	inactive: -8.01%
CN1CCCC(OC(=O)C(c2ccccc2)c2ccccc2)C1 (centres undefined)	inactive: -11.2%
Clc1ccc(Cl)c(NC2=NCC(CBr)S2)c1 (centres undefined)	inactive: -8.49%
Cc1ccc(OP(=O)(Nc2nccs2)Oc2ccc(C)cc2)cc1	inactive: -15.7%
COc1ccccc1OP(=O)(Nc1ccc(C)cn1)Oc1ccccc1OC	inactive: -34.3%
O=[N+]([O-])c1cc([N+](=O)[O-])c(CCN2CCOCC2)c([N+](=O)[O-])c1	inactive: -9.29%
Nc1cccc2ccc([As](=O)(O)O)cc12	inactive: 0.23%
CCN(N=Nc1nonc1N)c1nonc1N	inactive: -14.8%
O=P(Nc1nc2ccc(Cl)cc2s1)(c1ccccc1)c1ccccc1	inactive: -32.4%
CC(=O)Nc1ccc([As](=O)(O)O)cc1	inactive: -21.2%
O=C(O)c1ccccc1[As](=O)(O)O	inactive: -27.5%
Cc1ccc(NP(=O)(Oc2ccccc2F)Oc2ccccc2F)nc1	inactive: -3.53%
Cc1cc(SC(NC(=O)c2ccc(F)cc2)C(Cl)(Cl)Cl)ncn1 (centres undefined)	inactive: -1.36%
CCOP(=O)(Nc1ccccc1)OCC	inactive: 4.25% and inactive: -16.5%
CCC(=O)N1C2C3N(C(=O)CC)C1C1N(C(=O)CC)C(C(N1C(=O)CC)N3C(=O)CC)N2C(=O)CC	inactive: 3.79%
O=C(OC1CN2CCC1CC2)c1ccccc1 (centres undefined)	inactive: -46%
CC(=O)NC(SC(=S)N(CC(C)C)CC(C)C)C(Cl)(Cl)Cl (centres undefined)	inactive: 1.1%
Cc1ccc(OP(=O)(Nc2ccccn2)Oc2ccc(C)cc2)cc1	inactive: -4.03%
COC(=O)c1cc2c(s1)N=C(c1ccccc1)N(C)P2(=O)N1CCOCC1 (centres undefined)	inactive: -8.45%
O=c1c2cc([N+](=O)[O-])ccc2[nH]c2c([N+](=O)[O-])cc([N+](=O)[O-])cc12	inactive: -9.76%
CN(C)C(=O)Oc1noc2ccccc12	inactive: -44.2%

Structure (SMILES)	inhibition
Cc1ccccc1OP(=O)(Nc1ccccn1)Oc1ccccc1C	inactive: 9.11%
Cc1ccc(NP(=O)(Oc2cccc(C)c2)Oc2cccc(C)c2)nc1	inactive: -4.26%
CCOC(=O)NC(Sc1ccccc1)C(Cl)(Cl)Cl (centres undefined)	inactive: -37.5%
c1ccc(-c2nn[nH]n2)c(-c2nn[nH]n2)c1	inactive: -19.7%
O=C(NC1CCS(=O)(=O)C1)NP(=S)(Oc1ccccc1)Oc1ccccc1 (centres undefined)	inactive: -21.1%
CCNC(=S)/N=C(\N)N[N+](=O)[O-]	inactive: -4.54%
CC(=O)c1ccc(N2CC2c2ccncc2)cc1 (centres undefined)	inactive: -0.15%
CC(=O)Nc1ccc(Oc2c([N+](=O)[O-])cc([N+](=O)[O-])cc2[N+](=O)[O-])cc1	inactive: -6.79%
CC(=O)Nc1ccc([As](=O)(O)O)c(O)c1	inactive: -3.48%
CCOc1ccc(C2=NCC(CBr)S2)cc1 (centres undefined)	inactive: -20.9%
O=P1(Nc2nc3ccc(Cl)cc3s2)COc2ccccc2O1 (centres undefined)	inactive: -20.5%
CC(C)(C)C(=O)NC(Sc1ccccc1)C(Cl)(Cl)Cl (centres undefined)	inactive: -7.2%
O=P(Nc1nccs1)(c1ccccc1)c1ccccc1	inactive: -4.87%
CC(C)C(=O)NC(Sc1ccccc1)C(Cl)(Cl)Cl (centres undefined)	inactive: -16.4%
c1nnnn1CCn1cnnn1	inactive: -0.38%
O=[As](O)(c1ccccc1)c1ccc(O)cc1	inactive: -22.3%
CC(=O)NC(SC(=S)N(C)C)C(Cl)(Cl)Cl (centres undefined)	inactive: -2.5%
O=[N+]([O-])c1ncn(CCn2cnc([N+](=O)[O-])n2)n1	inactive: -24.2%
O=[N+]([O-])c1ccc(O)c(/C=N/Nc2ccc([N+](=O)[O-])cc2[N+](=O)[O-])c1	inactive: -17.3%
O=C(OC1CN2CCC1CC2)c1cccc(Cl)c1 (centres undefined)	inactive: -19.3%
